Earlier results in patent US10568890B2, “Lactate-based fulvestrant or fulvestrant derivative oily preparation and preparation method thereof” (Xi'An Libang Pharmaceutical Co., Ltd, priority 2012, dated 2020).

The chains behind the UniProt entries cited, without tags or fusion partners.
UniProt P03372, whole entry: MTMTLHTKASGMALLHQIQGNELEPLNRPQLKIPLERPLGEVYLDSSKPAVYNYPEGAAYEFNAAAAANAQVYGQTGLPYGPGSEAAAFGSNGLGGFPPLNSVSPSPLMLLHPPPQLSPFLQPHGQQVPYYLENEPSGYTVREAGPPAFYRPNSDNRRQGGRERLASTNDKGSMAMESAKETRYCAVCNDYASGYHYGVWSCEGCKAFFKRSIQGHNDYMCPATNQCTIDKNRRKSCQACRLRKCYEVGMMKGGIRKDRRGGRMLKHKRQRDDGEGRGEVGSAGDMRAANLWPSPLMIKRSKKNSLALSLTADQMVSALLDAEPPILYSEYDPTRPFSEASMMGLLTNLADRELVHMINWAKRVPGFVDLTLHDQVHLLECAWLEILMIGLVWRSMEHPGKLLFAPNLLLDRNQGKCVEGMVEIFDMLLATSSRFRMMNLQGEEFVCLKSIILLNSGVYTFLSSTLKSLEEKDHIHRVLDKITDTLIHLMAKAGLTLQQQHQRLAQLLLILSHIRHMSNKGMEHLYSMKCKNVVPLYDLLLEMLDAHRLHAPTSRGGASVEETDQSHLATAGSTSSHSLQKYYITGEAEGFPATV

Biological target: receptor (ER) (Homo sapiens, UniProt P03372)
Settings: relative to tamoxifen (TAM); cited from earlier work

Structure (SMILES): C[C@]12CC[C@@H]3c4ccc(O)cc4C[C@@H](CCCCCCCCC[S+]([O-])CCCC(F)(F)C(F)(F)F)[C@H]3[C@@H]1CC[C@@H]2O (stereo partly shown) [fulvestrant]
- affinity to a receptor (ER) as compared to TAM: 100 times higher
